According to patent US8207193B2 (priority 2006, dated 2012):
This is a selection: effects in other tests are not listed, and their absence says nothing.

Chains of the proteins cited; added tags and fusions are not shown.
UniProt P20309, whole entry: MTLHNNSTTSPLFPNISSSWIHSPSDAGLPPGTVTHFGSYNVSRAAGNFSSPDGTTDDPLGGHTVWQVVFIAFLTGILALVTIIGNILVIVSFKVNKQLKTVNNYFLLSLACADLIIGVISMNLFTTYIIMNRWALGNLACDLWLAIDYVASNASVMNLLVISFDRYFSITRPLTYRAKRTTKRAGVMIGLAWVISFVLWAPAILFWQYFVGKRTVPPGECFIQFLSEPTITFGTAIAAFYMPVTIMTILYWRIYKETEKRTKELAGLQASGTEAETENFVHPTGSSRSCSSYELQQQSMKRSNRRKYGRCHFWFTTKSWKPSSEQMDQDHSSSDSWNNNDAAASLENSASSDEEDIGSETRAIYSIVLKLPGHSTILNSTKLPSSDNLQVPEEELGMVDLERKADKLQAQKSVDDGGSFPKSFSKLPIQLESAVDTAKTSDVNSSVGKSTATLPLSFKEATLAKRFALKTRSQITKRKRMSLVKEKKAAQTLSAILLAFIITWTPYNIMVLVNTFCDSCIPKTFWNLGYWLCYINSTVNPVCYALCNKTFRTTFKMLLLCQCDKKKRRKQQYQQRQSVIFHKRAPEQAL

Target: human muscarinic acetylcholine M3 receptor (M3-ACh) (Homo sapiens, UniProt P20309)
Conditions: M3, Table 3, C8

Compound: O=C(O[C@H]1CN2CCC1CC2)C1(c2ccccc2)CCCCCCC1
- pIC50 of comparative compounds containing a cyclooctyl (C8) ring in place of cycloheptyl (C7): 9.1 (Comp Ex. 7)
